Chains of the proteins cited; added tags and fusions are not shown. Residues count along the entry.
UniProt P28335, 33-458: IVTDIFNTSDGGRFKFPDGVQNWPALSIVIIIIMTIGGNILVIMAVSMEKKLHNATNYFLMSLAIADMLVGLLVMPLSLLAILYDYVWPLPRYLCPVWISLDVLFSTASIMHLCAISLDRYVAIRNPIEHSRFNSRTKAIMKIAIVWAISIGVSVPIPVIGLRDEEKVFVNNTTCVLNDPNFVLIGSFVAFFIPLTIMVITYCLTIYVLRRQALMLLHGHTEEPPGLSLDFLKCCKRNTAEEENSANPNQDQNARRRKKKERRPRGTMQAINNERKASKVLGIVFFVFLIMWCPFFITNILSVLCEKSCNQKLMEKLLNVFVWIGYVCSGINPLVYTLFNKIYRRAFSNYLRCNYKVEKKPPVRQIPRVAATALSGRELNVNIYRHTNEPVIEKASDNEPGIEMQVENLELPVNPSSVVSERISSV

According to patent US7271164B2, “Cyclohepta[b][1,4]diazepino[6,7,1,-hi]indoles and derivatives” (Wyeth, priority 2000, dated 2007):

What was measured:
[1] = target: T1, human 5-HT2C receptor (Homo sapiens, UniProt P28335); experiment: Stimulation of [3H] Inositol Monophosphate Production by 5-HT2C Agonists (transfected CHO cells); format: cell-based
T1 construct: expressed in transfected cells; host or cells: CHO cells

[2] = target: T2, human 5-hydroxytryptamine2C (h5HT2C) receptor (Homo sapiens, UniProt P28335); experiment: 5HT2C Receptor Binding Test Procedure ([125I] DOI displacement, CHO cell membranes); details: reference compounds; [125I] DOI binding, h5HT2C in CHO membranes; read-out: Ki value and 95% confidence interval
T2 construct: expressed in transfected cells; host or cells: CHO (Chinese Hamster Ovary) cells; membrane preparation

Clc1cccc(N2CCNCC2)c1 [mCPP, meta-chlorophenylpiperazine]
EMAX (relative to 5-HT) ([1]; reference compound, relative to 5-HT (10 μM)): 60%
EC50 ([1]; reference compounds, [3H] IP1 production): 0.0468 µM
Ki [2]: 0.0065 µM
